Experimental findings from patent publication US8178505B2, “Method of predicting and reducing risk of metastasis of breast cancer to lung” (Sloan-Kettering Institute for Cancer Research, priority 2005, dated 2012) are described below.

The assay deals with LM2 cells. In words: Lung metastasis formation after tail vein injection of LM2 cells, pharmacological targeting, bioluminescence imaging. Particulars: preliminary results; drugs individually or in combination; FIGS. 2A and 2B. In kind it is in vivo, Balb/c nude mice.

As for “Erbitux: anti-EGFR antibody to target the epiregulin pathway”, the preventing lung metastasis entry is “findings similar to those obtained using genetic knockdowns”.
